In the assay the target is Fibrinogen beta chain (Homo sapiens) (UniProt P02675). The assay can be described thus: fibrin DD(E) probe displacement, second cyclic peptide – biochemical, fluorescence polarization, human fibrin, counter-screen for fibrin DD(E)-Tn7 binding project, confirmation (AID 720633).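 Note: 0% = median of compound sample wells and 100% = excess unlabeled Aha-Tn7 peptide.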 The following applies: TRITC-Tn7 probe displacement, at 8.3 µM, active compounds read high. (In general: In fluorescence polarisation assays a small probe gives low polarisation when free and higher when bound to something large.)

By UniProt entry, the sequences of proteins in these tests, tags left out. Where a name states a change or a piece, a line headed by the entry shows the natural chain unless it says otherwise.
UniProt P02675: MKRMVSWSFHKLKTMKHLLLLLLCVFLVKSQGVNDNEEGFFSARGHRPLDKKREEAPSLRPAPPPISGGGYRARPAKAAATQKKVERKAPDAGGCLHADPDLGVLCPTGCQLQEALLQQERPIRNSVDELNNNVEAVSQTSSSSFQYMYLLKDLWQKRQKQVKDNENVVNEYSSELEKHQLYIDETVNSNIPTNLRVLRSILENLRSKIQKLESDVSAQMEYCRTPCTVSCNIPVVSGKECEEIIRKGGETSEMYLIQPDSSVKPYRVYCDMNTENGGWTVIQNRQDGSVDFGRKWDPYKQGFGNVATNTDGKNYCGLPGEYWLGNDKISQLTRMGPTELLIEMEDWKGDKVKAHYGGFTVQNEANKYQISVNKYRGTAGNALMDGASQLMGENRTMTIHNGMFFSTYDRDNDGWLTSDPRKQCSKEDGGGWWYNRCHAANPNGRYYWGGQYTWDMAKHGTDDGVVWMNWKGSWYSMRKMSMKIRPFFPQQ

This is a selection; strong and weak results do not stand in their true shares. The source made the active and inactive calls.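 Rule for the calls: active = inhibition above the cutoff, the mean of compounds lying between the control bounds plus 3 SD of those compounds (cut at about 17% in these data); inactive = the rest.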

As usually defined, the inhibition is the share of the control response that was lost under treatment. For the compound `Nc1cccc2c([As](=O)(O)O)cccc12`, the inhibition is inactive: 15%.

The values are drawn from PubChem BioAssay AID720633 (The Scripps Research Institute Molecular Screening Center, 2013).
